Assay results from ChEMBL document CHEMBL1141563, “Novel inhibitors of the Gardos channel for the treatment of sickle cell disease” (J Med Chem, 2008).

The chains behind the UniProt entries cited, without tags or fusion partners.
UniProt O15554, whole entry: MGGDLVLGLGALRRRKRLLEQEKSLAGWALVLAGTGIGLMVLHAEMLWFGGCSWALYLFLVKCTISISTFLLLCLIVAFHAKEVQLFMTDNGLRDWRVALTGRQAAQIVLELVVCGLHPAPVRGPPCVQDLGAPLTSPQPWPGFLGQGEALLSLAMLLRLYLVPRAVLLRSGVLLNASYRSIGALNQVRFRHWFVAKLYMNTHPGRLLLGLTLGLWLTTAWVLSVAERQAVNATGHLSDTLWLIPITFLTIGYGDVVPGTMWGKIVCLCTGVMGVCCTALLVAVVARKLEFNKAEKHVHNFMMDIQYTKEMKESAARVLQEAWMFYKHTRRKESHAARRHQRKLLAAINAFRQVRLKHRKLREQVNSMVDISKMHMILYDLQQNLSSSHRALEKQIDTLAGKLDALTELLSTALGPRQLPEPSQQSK

Biological target: Intermediate conductance calcium-activated potassium channel protein 4 (Homo sapiens, UniProt O15554)
Assay: Inhibition of Gardos channel in human RBC assessed as inhibition of ionomycin-stimulated [86Rb] efflux

With `NC(=O)C(c1ccccc1)(c1ccc(F)cc1)c1ccc(F)cc1` [SENICAPOC] the pIC50 was 7.92.

pIC50: −log10 of the molar value.
